Source: US20080032998A1, “Pyrazolopyrimidines, a process for their preparation and their use as medicine” (MERZ PHARMA GMBH & CO. KGAA, priority 2006, published 2008)

Sequences of proteins named here, by UniProt entry; tags and fusion partners are left off. Residues count along the entry.
UniProt P31424, 21-1203: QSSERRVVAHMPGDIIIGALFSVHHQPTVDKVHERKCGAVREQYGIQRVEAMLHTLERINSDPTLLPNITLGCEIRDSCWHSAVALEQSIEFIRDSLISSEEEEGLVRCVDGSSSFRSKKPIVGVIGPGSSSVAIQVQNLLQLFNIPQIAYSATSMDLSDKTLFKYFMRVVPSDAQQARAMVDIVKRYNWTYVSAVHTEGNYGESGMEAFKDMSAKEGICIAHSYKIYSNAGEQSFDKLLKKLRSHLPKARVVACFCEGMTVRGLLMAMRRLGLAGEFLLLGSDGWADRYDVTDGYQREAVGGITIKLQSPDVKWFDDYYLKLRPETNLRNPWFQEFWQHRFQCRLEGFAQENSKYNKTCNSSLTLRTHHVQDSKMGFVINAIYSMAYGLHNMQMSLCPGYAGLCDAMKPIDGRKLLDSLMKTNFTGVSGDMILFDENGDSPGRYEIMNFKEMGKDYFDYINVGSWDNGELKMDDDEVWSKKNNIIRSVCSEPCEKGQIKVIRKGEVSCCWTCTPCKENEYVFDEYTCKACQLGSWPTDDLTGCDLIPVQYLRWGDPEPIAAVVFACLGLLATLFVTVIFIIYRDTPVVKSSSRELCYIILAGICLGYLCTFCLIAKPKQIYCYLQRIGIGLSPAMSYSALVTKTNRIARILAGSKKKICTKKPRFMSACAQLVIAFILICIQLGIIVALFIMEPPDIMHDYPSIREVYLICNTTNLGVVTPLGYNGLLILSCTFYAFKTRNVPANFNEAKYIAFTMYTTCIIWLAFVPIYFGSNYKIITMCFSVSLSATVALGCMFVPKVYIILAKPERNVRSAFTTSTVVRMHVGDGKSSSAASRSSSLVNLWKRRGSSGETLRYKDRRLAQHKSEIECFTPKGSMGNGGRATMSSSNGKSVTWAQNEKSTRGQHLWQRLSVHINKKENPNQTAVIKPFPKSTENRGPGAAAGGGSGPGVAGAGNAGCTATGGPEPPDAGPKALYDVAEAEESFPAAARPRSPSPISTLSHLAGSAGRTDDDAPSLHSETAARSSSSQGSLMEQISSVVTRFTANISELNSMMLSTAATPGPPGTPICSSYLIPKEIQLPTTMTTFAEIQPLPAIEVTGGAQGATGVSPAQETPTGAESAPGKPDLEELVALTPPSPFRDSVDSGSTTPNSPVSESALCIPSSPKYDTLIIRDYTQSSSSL

Target: T1, transmembrane allosteric modulatory sites of mGluR5 receptors in cortical membranes (Rattus norvegicus, UniProt P31424)
T1 construct: from tissue; host or cells: rat brain cortex membranes (male Sprague-Dawley)
Test: [3H]-MPEP binding assay in rat cortical membranes
Protocol: Male Sprague-Dawley rats (200-250 g) are decapitated and their brains are removed rapidly. The cortex is dissected and homogenized in 20 volumes of ice-cold 0.32 M sucrose using a glass-Teflon homogenizer. The homogenate is centrifuged at 1000×g for 10 minutes. The pellet is discarded and the supernatant centrifuged at 20,000×g for 20 minutes. The resulting pellet is re-suspended in 20 volumes of distilled water and centrifuged for 20 minutes at 8000×g. Then the supernatant and the buffy coat are centrifuged at 48,000×g for 20 minutes in the presence of 50 mM Tris-HCl, pH 8.0. The pellet is then re-suspended and centrifuged two to three more times at 48,000×g for 20 minutes in the presence of 50 mM Tris-HCl, pH 8.0. All centrifugation steps are carried out at 4° C. After resuspension in 5 volumes of 50 mM Tris-HCl, pH 8.0 the membrane suspension is frozen rapidly at −80° C. […]
Alternatively, assays are performed with [^3H]-MMPEP (2-(3-methoxyphenylethynyl)-6-methylpyridine hydrochloride) as radioligand. […] Following separation and rinse, the filters are placed into scintillation liquid (5 ml Ultima Gold, Perkin Elmer, Germany) and radioactivity retained on the filters is determined with a conventional liquid scintillation counter (Canberra Packard, Germany).

Question: `Cc1cccc(C#Cc2ccccc2)n1` [MPEP, 2-methyl-6-(phenylethynyl)pyridine] was tested. Which IC50 did it give?
Answer: Its IC50 is 11.2 ± 0.64 nM.
